In patent US10307371B2 (AI Therapeutics, Inc., priority 2014, dated 2019):

Tested on: mTOR
Experiment: S6 phosphorylation in mouse lung as biomarker for mTOR activity
Settings: 1 mg/kg

SMILES: CO[C@H]1C[C@@H]2CC[C@@H](C)[C@@](O)(O2)C(=O)C(=O)N2CCCC[C@H]2C(=O)O[C@H]([C@H](C)C[C@@H]2CC[C@@H](O)[C@H](OC)C2)CC(=O)[C@H](C)/C=C(\C)[C@@H](O)[C@@H](OC)C(=O)[C@H](C)C[C@H](C)/C=C/C=C/C=C/1C [Rapamycin, (3S,6R,7E,9R,10R,12R,14S,15E,17E,19E,21S,23S,26R,27R,34aS)-9,10,12,13, -14,21,22,23,24,25,26,27,32,33,34,34a-hexadecahydro-9,27-dihydroxy-3-[(1R)-2-[(1S,3R,4R)-4-hydroxy-3-methoxycyclohexyl]-1-methylethyl]-10,21-dimethox-y-6,8,12,14,20,26-hexamethyl-23,27-epoxy-3H-pyrido[2,1-c][1,4]oxaazacyclohentriacontine-1,5,11,28,29(4H,6H,31H)-pentone]
- Level of phosphorylated S6 (pS6) in lung tissue (OPA, 1 hr, versus vehicle): reduced substantially
- Level of phosphorylated S6 (pS6) in lung tissue (OPA, 72 hr): remained suppressed
- Level of phosphorylated S6 (pS6) in lung tissue (oral gavage, 1 hr, versus vehicle): reduced substantially
